Target: inactive PAK I holoenzyme (p60) purified from rabbit reticulocytes (rabbit) (UniProt Q29502)
Assay: cell-based or functional assay

Work on “GST-Rac1 preloaded with GTPγS (from UniProt P63000 1-192)” yielded a stimulation relative to Cdc42Hs(GTPγS) of 10 fold lower.

From US20020086390A1
